## AlphaSeq binding of Ab-14 heavy chain variants to a spike HR2 peptide

Binding partner: SARS-CoV-2 spike HR2 peptide, sequence PDVDLGDISGINAS.

Each scFv is VH, a 15-residue (Gly4Ser)3 linker, VL, as in the parent Ab-14, and differs from it in the CDRs of the heavy chain only.
VH: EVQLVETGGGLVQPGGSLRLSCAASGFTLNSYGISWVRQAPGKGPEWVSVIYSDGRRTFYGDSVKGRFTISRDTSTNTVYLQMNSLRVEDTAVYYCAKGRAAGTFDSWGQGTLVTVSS
VL: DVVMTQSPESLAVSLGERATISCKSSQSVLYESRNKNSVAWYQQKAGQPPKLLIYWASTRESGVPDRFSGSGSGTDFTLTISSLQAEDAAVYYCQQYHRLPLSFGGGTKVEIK

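The starting antibody came from a phage panning campaign against this peptide. These sequences belong to a second round, designed from the earlier measurements on random variants of the parent. Several design methods are mixed in this list. The assay is AlphaSeq: two haploid yeast populations carry antibody and antigen on their surface. Mating (16 h, 30 °C) was followed by selection of diploids and sequencing of their barcodes. Read counts were normalised to the haploid input and turned into Kd by a linear fit to BCL2-family pairs of known affinity, for each replicate. There are six technical replicates.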

Variants are written as CDR1, CDR2 and CDR3 of the heavy chain (limits as in the source). Parent: GFTLNSYGIS, VIYSDGRRTFYGDSVK, GRAAGTFDS.
Affinities are written as log10 Kd with Kd in nM; a lower number is a better binder.
Replicates are averaged; those with no signal do not enter the mean.
"no signal" means that the variant was in the library but no mating with the target was seen in any replicate; the authors take this as a sign of poor binding, and no number exists.
Order: sorted from the lowest average up, undetected variants last.
As a blank, each scFv also met three strains without target: over all heavy chain designs, 1% of these pairings were detected, typically at 2.08 and seldom below 0.84. Also given: how often the same scFv was detected with the empty control strains.

mean log10 Kd (nM) | replicates with signal | signal with controls | CDR-H1 | CDR-H2 | CDR-H3
-1.14 | 6 of 6 | 0 of 18 | GFDLNEYGIS | VIYADGMRTYYSDSVK | GNVAGTFDL
-0.89 | 6 of 6 | 0 of 18 | GFSLNEYGIS | VIYSDGRRTFYGDSVK | GSTAGTFDS
-0.76 | 6 of 6 | 0 of 18 | GFDLNEYGIS | VIYADGVRTAYIDSVK | GENAGTFDV
-0.71 | 6 of 6 | 0 of 18 | GFDLNEYGIS | VIYADGQRTAYADTVK | GNVAGTFDV
-0.61 | 6 of 6 | 0 of 18 | GFDLDEYGIS | VIYADGKRTAYVDSVK | GENAGTFDI
-0.52 | 6 of 6 | 0 of 18 | GFDLNEYGIS | VIYADGRRTFYTDSVK | GQNAGTFDQ
-0.48 | 6 of 6 | 1 of 18 | GFDLNEYGIS | VIYADGQRTAYSDSVK | GNQAGTFDV
-0.48 | 6 of 6 | 0 of 18 | GFDLDEYGIS | VIYADGMRTAYSDNVK | GNVAGTFDV
-0.44 | 6 of 6 | 0 of 18 | GFDLNEYGIS | VIYADGQRTAYADSVK | GKAAGTFDM
-0.43 | 6 of 6 | 3 of 18 | GFDLNEYGIS | VIYADGVRTAYADDVK | GQNAGTFDM
-0.42 | 6 of 6 | 1 of 18 | GFDLNEYGIS | VIYADGKRTAYADSVK | GENAGTFDV
-0.40 | 5 of 6 | 0 of 18 | GFDLESYGIS | VIYADGRRTAYADSVK | GNVAGTFDS
-0.40 | 6 of 6 | 0 of 18 | GFDLNEYGIS | VIYADGVRTSYVDSVK | GETAGTFDS
-0.36 | 6 of 6 | 0 of 18 | GFDLNEYGIS | VIYADGQRTAYADSVK | GANAGTFDI
-0.36 | 6 of 6 | 0 of 18 | GFSLNDYGIS | VIYSDGRRTFYGDSVK | GREAGTFDT
-0.33 | 12 of 12 | 0 of 36 | GFSLNSYGIS | VIYSDGRRTFYGDSVK | GREAGTFDS
-0.25 | 6 of 6 | 0 of 18 | GFNLNEYGIS | VIYADGRRTFYADSVK | GHAAGTFDV
-0.24 | 6 of 6 | 0 of 18 | GFDLNEYGIS | VIYADGQRTFYADSVK | GNEAGTFDV
-0.10 | 6 of 6 | 0 of 18 | GFDLNEYGIS | VIYADGMRTAYADSVK | GKNAGTFDV
-0.09 | 6 of 6 | 0 of 18 | GFDLNEYGIS | VIYADGRRTAYSDSVK | GETGGTFDS
-0.09 | 6 of 6 | 0 of 18 | GFDLNEYGIS | VIYADGKRTYYADSVK | GENAGTFDV
-0.02 | 1 of 6 | 0 of 18 | GFDLDEYGIS | VIYADGMRTAYADSVK | GNQAGTFDV
-0.01 | 6 of 6 | 0 of 18 | GFDLNEYGIS | VIYADGKRTAYADSVK | GNVAGTFDT
0.01 | 6 of 6 | 0 of 18 | GFDLNEYGIS | VIYADGRRTFYSDSVK | GQNGGTFDE
0.02 | 6 of 6 | 0 of 18 | GFTLNSYGIS | VIYSDGRRTFYGDSVK | GDVAGTFDT
0.05 | 6 of 6 | 0 of 18 | GFSLNEYGIS | VIYADGRRTFYGDSVK | GWAAGTFDS
0.05 | 6 of 6 | 1 of 18 | GFDLNEYGIS | VIYADGVRTYYADSVK | GENAGTFDM
0.06 | 6 of 6 | 0 of 18 | GFDLDEYGIS | VIYADGMRTSYADSVK | GENAGTFDL
0.18 | 6 of 6 | 2 of 18 | GFSLNDYGIS | VIYSDGRRTFYGDAVK | GRTAGTFDS
0.21 | 6 of 6 | 0 of 18 | KFSLNSYGIS | VIYADGRRTFYGDSVK | GKAAGTFDS
0.33 | 6 of 6 | 0 of 18 | GFTLNEYGIS | VIYSDGRRTFYGDSVK | GRVAGTFDA
0.36 | 6 of 6 | 0 of 18 | GFPLNEYGIS | VIYSDGRRTFYGDSVK | GKAAGTFDS
0.39 | 3 of 6 | 0 of 18 | GFTLNEYGIS | VIYSDGRRTFYGDSVK | GRFAGTFDV
0.45 | 5 of 6 | 0 of 18 | GFDLEDYGIS | VIYADGMRTAYADSVK | GEIAGTFDV
0.45 | 1 of 6 | 0 of 18 | GFNLESYGRS | VIYSDGRRTFYGDSVK | GRAAVRFDS
0.89 | 6 of 6 | 0 of 18 | GFDLNMYGIS | VIYSDGRRTFYGDSVK | GRQAGTFDS
1.03 | 5 of 6 | 0 of 18 | GFTLNDYGIS | VIYSDGRRTMYHDSVK | GRAAGTFDS
1.14 | 6 of 6 | 0 of 18 | GFTLNSYGIS | VIYSDGWRTFYSDSVK | GRTAGTFDS
1.14 | 1 of 6 | 0 of 18 | GFTLNEYGIS | VIYSDGMRTFYGDSVK | GRTAGTFDS
1.15 | 6 of 6 | 0 of 18 | GFTINSYGIS | VIYSDGRRTFYSDSVK | GRQAGTFDS
1.41 | 6 of 6 | 0 of 18 | GFSLNSYGIS | VIYSDGRRTFYVDSVK | GQAAGTFDL
1.41 | 3 of 6 | 0 of 18 | GFTLDSYGIS | VIYSDGRRTFYSDSVK | GQAAGTFDS
1.53 | 2 of 6 | 0 of 18 | GFTLNLYGIS | VIYSDGRRTFYGDSVK | GRVAGTMRS
1.69 | 6 of 6 | 1 of 18 | GFQLNSYGIS | VIYSDGRRTFYGDSVK | GDNAGTFDS
1.74 | 3 of 6 | 0 of 18 | GFSLNSYGIS | VIYSDGRRTFYVDSVK | GQVAGTFDS
1.79 | 1 of 6 | 1 of 18 | GFTLNDYGIS | VIYSDGRRTSYGDAVK | GRAAGTFWS
2.03 | 1 of 6 | 0 of 18 | GKDMEDYGIS | VIYADGSRAAYGDNFK | GELAGTFDM
4.50 | 1 of 6 | 1 of 18 | GFNLEEYGIS | VIYADGMRSEYADNVK | GHKGNWFQD
no signal | 0 of 6 | 1 of 18 | GFDVDEQGIS | VIYADGLRSQYANSVK | GANGGMFFQ
no signal | 0 of 6 | 0 of 18 | GMDLEEYGIS | VIYADGMRTYAVDSVK | GDQGGNLLY
no signal | 0 of 6 | 0 of 18 | GFTLNEYGIS | VIYSFKRRTFYGDSVK | GRAAVTFDQ
no signal | 0 of 6 | 0 of 18 | GQNLNSYGRS | VIYSDGRRTFYGDSVK | GRAAGTFDS
no signal | 0 of 6 | 0 of 18 | EFTLNEYGIS | VIYSDGRRTFYGDSSK | GRAAVTFDQ
no signal | 0 of 6 | 0 of 18 | GFTLNSYGIS | VIYSDGRRTFYGDSVR | GQAAGTFDS
no signal | 0 of 6 | 0 of 18 | GFTLNQYGIS | VIYSDGRRTFYSWSVK | GRAAGFFDS
no signal | 0 of 6 | 0 of 18 | GDGLQEYGIS | VIYADGFRSSYANDVK | GTNTGIFMV
no signal | 0 of 6 | 0 of 18 | GFELNSYGIS | VIYSDGRRTFYVDDVK | GNAAGTFDS
no signal | 0 of 6 | 0 of 18 | GFTLNEYGIS | VIYSDGRRTFYGDSVK | GRAAVTFDT
no signal | 0 of 6 | 0 of 18 | GFNLEEYGIS | VIYADGKRSSVSDSVK | GQLGNAFDM
no signal | 0 of 6 | 0 of 18 | GFTLNSYGIS | VIYSDGRREFYGDSVK | GMAAVTFDS
no signal | 0 of 6 | 0 of 18 | GFTLNDYGIS | VIYSDGERTFYGDSVK | GRAAQTFDS
no signal | 0 of 6 | 0 of 18 | GFPLNSYGIS | VIYSDGRRTAYGDDVK | GRAAGRFDQ
no signal | 0 of 6 | 0 of 18 | GFTLNHYGIS | VIYSDGRRTFYTDSSK | GRFAGTFYS
no signal | 0 of 6 | 0 of 18 | GFDLEEYGIS | VIYADGMRVSYTNTVK | GQNSMISAT

Top 11 of the variants detected in all replicates, tightest first:

| CDR-H1 | CDR-H2 | CDR-H3 | mean log10 Kd (nM) | replicates with signal | signal with controls |
|---|---|---|---|---|---|
| GFDLNEYGIS | VIYADGMRTYYSDSVK | GNVAGTFDL | -1.14 | 6 of 6 | 0 of 18 |
| GFSLNEYGIS | VIYSDGRRTFYGDSVK | GSTAGTFDS | -0.89 | 6 of 6 | 0 of 18 |
| GFDLNEYGIS | VIYADGVRTAYIDSVK | GENAGTFDV | -0.76 | 6 of 6 | 0 of 18 |
| GFDLNEYGIS | VIYADGQRTAYADTVK | GNVAGTFDV | -0.71 | 6 of 6 | 0 of 18 |
| GFDLDEYGIS | VIYADGKRTAYVDSVK | GENAGTFDI | -0.61 | 6 of 6 | 0 of 18 |
| GFDLNEYGIS | VIYADGRRTFYTDSVK | GQNAGTFDQ | -0.52 | 6 of 6 | 0 of 18 |
| GFDLNEYGIS | VIYADGQRTAYSDSVK | GNQAGTFDV | -0.48 | 6 of 6 | 1 of 18 |
| GFDLDEYGIS | VIYADGMRTAYSDNVK | GNVAGTFDV | -0.48 | 6 of 6 | 0 of 18 |
| GFDLNEYGIS | VIYADGQRTAYADSVK | GKAAGTFDM | -0.44 | 6 of 6 | 0 of 18 |
| GFDLNEYGIS | VIYADGVRTAYADDVK | GQNAGTFDM | -0.43 | 6 of 6 | 3 of 18 |
| GFDLNEYGIS | VIYADGKRTAYADSVK | GENAGTFDV | -0.42 | 6 of 6 | 1 of 18 |

Some sequences occur more than once in the pool; their replicates are pooled.
Values of this round are not directly comparable with the first-round values of the same sequences.
In the paper, a design with two or fewer of six values counts as a poor binder.
The parent sequence was in this pool as ten entries: three were never detected, three once, and four in most replicates, with averages from 0.34 to 2.37.

From the AlphaSeq antibody data of Li et al. 2023 (doi:10.1038/s41467-023-39022-2), copy in the FLAb collection.